{"sequences": {"note": "Chains of the proteins cited; added tags and fusions are not shown.", "UniProt Q92847, whole entry": "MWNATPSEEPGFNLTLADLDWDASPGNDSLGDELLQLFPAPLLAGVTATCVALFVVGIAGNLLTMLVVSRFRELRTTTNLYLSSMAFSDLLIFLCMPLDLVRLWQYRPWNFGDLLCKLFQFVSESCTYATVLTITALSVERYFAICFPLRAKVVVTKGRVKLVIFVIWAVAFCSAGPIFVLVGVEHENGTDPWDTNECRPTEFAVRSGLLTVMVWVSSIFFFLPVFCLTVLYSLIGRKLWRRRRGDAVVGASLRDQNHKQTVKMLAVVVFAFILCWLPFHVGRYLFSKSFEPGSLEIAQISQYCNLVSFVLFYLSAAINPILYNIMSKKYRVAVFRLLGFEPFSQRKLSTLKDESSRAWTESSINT"}, "source": "ChEMBL document CHEMBL1156448", "about": "“Identification of an efficacy switch region in the ghrelin receptor responsible for interchange between agonism and inverse agonism” (J Biol Chem, 2007)", "key": {"[1]": {"biological_target": "T1, Growth hormone secretagogue receptor type 1 (Homo sapiens, UniProt Q92847)", "assay": "Inverse agonist activity at human ghrelin receptor expressed in african green monkey COS7 cells assessed as constitutively stimulated inositol phosphate accumulation", "assay_type": "functional, cell-based, COS-7"}, "[2]": {"biological_target": "T1, Growth hormone secretagogue receptor type 1", "assay": "Displacement of [35S]MK677 from human ghrelin receptor expressed in african green monkey COS7 cells", "assay_type": "cell-based, COS-7"}}}
{"smiles": "CC(C)C[C@H](NC(=O)[C@H](CC(C)C)NC(=O)[C@@H](Cc1c[nH]c2ccccc12)NC(=O)[C@H](Cc1ccccc1)NC(=O)[C@@H](Cc1c[nH]c2ccccc12)NC(=O)[C@H](CCC(N)=O)NC(=O)[C@@H](Cc1ccccc1)NC(=O)[C@@H]1CCCN1C(=O)[C@H](CCCCN)NC(=O)[C@@H]1CCCN1C(=O)[C@H](N)CCCN=C(N)N)C(N)=O", "values": [{"measurement": "IC50", "setting": "[1]", "value": 18, "unit": "nM"}, {"measurement": "IC50", "setting": "[2]", "value": 3.2, "unit": "nM"}]}
